Screen size: about 10,000 compounds; about 15 (0.1%) were called active.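 Rule for the calls: active = highest signal at least 8 times the median of untreated cell-only control wells at some dose; inactive = the rest.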 Not all results are given here.
Legend:
[1] = total CFTR protein upregulators, primary screen, cell-based, HeLa F508del-CFTR, immunofluorescence, viability (AID 1224863); settings: 24 h, stronger effect = higher value; min viability: measured here: HeLa viability, alamarBlue, dose 20, library dosed in µg/mL unless noted; viability: measured here: primary viability 10 ug/mL, library dosed in µg/mL unless noted;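 for fold increase: total CFTR protein by anti-CFTR immunofluorescence in fixed cells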;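 for max fold increase: total CFTR protein by anti-CFTR immunofluorescence in fixed cells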
[2] = molecular target: Cystic fibrosis transmembrane conductance regulator (Homo sapiens) (UniProt P13569); test: as above; settings: 24 h; fold increase: measured here: primary screen 10 ug/mL, library dosed in µg/mL, stronger effect = higher value unless noted; max fold increase: dose 10, library dosed in µg/mL, stronger effect = higher value unless noted; outcome: library dosed in µg/mL unless noted

By UniProt entry, the sequences of proteins in these tests, tags left out. Chains listed by the source or under a name are the forms on record and can include a tag or linker.
UniProt P13569, with tags, fused parts or gaps F508del: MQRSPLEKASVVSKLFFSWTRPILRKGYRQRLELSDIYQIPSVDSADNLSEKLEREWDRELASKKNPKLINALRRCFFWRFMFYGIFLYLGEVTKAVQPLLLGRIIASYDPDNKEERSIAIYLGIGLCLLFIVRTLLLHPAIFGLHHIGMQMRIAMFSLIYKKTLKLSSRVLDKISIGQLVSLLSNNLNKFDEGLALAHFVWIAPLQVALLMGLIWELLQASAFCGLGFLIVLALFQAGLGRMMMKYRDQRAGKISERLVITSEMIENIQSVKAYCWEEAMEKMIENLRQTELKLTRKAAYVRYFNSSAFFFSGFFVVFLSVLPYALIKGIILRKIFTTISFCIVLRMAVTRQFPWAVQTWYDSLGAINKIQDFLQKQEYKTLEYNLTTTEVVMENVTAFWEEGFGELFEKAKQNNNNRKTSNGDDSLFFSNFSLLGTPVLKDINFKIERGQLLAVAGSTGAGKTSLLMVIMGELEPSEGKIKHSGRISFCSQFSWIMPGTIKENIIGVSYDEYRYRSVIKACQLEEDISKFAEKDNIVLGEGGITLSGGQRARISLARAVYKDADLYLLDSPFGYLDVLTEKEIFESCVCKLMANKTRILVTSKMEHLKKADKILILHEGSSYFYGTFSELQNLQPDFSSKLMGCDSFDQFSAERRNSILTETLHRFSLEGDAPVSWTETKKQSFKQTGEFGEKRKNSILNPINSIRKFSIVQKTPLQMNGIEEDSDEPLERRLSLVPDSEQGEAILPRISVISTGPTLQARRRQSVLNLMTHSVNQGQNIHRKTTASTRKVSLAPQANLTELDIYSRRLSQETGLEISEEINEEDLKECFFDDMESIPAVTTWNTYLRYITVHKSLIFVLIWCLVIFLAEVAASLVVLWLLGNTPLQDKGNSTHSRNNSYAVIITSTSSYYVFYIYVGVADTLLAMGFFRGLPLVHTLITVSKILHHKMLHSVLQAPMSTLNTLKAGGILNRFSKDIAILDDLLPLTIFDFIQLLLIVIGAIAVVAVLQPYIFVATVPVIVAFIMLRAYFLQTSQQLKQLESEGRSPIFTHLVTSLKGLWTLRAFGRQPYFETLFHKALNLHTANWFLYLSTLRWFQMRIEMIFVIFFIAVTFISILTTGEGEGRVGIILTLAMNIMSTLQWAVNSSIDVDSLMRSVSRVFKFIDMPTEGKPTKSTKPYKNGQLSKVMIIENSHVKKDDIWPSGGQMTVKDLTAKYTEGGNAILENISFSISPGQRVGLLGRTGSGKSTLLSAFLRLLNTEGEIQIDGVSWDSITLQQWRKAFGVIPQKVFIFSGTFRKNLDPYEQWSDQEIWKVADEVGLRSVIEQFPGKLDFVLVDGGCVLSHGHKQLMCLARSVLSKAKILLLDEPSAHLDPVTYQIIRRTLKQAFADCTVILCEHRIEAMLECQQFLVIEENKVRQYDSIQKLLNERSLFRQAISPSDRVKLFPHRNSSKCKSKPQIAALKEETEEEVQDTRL

| SMILES | viability [1] [%] | fold increase [2] | outcome [2] | min viability [1] [%] | max fold increase [2] |
| --- | --- | --- | --- | --- | --- |
| N#Cc1c(/C=C/c2ccc3c(c2)OCCO3)cc(-c2cccc(Cl)c2)n2c1nc1ccccc12 | 99 | 1.16 | inactive | – | – |
| CC(C)CN1CC(C(=O)Nc2ccc3c(c2)OC2(CCCC2)O3)CC1=O (stereo not drawn) | 83 | 1.08 | inactive | – | – |
| O=C(OCc1cc(Cl)c2c(c1)OCO2)c1ccco1 | 90 | 0.99 | inactive | – | – |
| O=C(Cn1ncc(Cl)c(Cl)c1=O)N1CCNC1=O | 78 | 1.56 | – | 70 | 3.11 (inactive) |
| CCOCCCNc1sc(S(C)(=O)=O)nc1S(=O)(=O)c1ccc(C)cc1 | 93 | 1.05 | inactive | – | – |
| CC(C#N)Sc1nnnn1-c1ccc(Cl)cc1 (stereo not drawn) | 98 | 0.96 | inactive | – | – |
| C=CCOc1ccccc1/C=C(/C#N)c1nc(N)nc(N(C)C)n1 | 85 | 1.09 | inactive | – | – |
| N#Cc1ccc(/C=C2\CSc3ccccc3C2=O)cc1 | 56 | 0.79 | inactive | – | – |
| CC1(c2ccc3c(c2)OCO3)NC(=O)N(Cc2ccc3c(c2)OCO3)C1=O (stereo not drawn) | 100 | 0.99 | inactive | – | – |
| CS(=O)(=O)NC1CCN(CC(=O)NC2CC2)CC1 | 105 | 1.17 | inactive | – | – |
| S=c1n(CN(C2CCCC2)C2CC2)nc(N2CCOCC2)n1-c1ccccc1 | 102 | 1.03 | inactive | – | – |
| CC(C)N1C(=O)c2ccc(C(=O)Nc3ccc(I)cc3)cc2S1(=O)=O | 92 | 0.96 | inactive | – | – |
| Cc1cnc(NC(=O)COCC2CC2)s1 | 100 | 1.01 | inactive | – | – |
| CCN1C(=O)c2ccccc2N2C(=O)CCC12C(=O)NC(C)c1ccc(F)cc1 (stereo not drawn) | 97 | 0.96 | inactive | – | – |
| CCC(C)(C)NCC(=O)N1c2ccccc2NC(=O)C1(C)C | 93 | 1.11 | inactive | – | – |
| NC(=O)C1CCCN1S(=O)(=O)c1ccc(Cl)s1 (stereo not drawn) | 97 | 1.06 | inactive | – | – |
| Cn1ncc2c(NCC(=O)NC(C)(C)C)ncnc21 | 91 | 1.05 | inactive | – | – |
| CS(=O)(=O)c1ccc(Oc2ccc3c(c2)OCCO3)c([N+](=O)[O-])c1 | 92 | 0.98 | inactive | – | – |
| CCn1c(SCCS(=O)(=O)c2ccc(Br)cc2)nc2ccccc21 | 74 | 0.65 | inactive | – | – |
| CN1CCN(C(=O)C2CCN(C(=O)OCC(F)(F)F)CC2)c2nc3ccccc3nc21 | 85 | 0.99 | inactive | – | – |
| CN(C)S(=O)(=O)N1CCN(Cc2ccccc2CN2CCN(S(=O)(=O)N(C)C)CC2)CC1 | 94 | 0.9 | inactive | – | – |
| CS(=O)(=O)NC1CCCN(c2nc(-c3ccccc3)nc3ccccc23)C1 (stereo not drawn) | 91 | 0.95 | inactive | – | – |
| COc1cc(OC)cc(-c2nnc(SCCc3ccccc3)o2)c1 | 105 | 0.99 | inactive | – | – |
| FC(F)(F)c1cnc(Nc2ccc3c(c2)OCCO3)c(Cl)c1 | 81 | 0.98 | inactive | – | – |
| CC1CCC2(CC1)NC(=O)N(CN1CCC(C(=O)c3ccc4c(c3)OCCO4)CC1)C2=O (stereo not drawn) | 97 | 1.04 | inactive | – | – |
| O=C(OCCOc1ccc(Br)cc1)C1(c2cccc(F)c2)CCCC1 | 77 | 0.97 | inactive | – | – |
| C=CCn1c(C)cc(-c2csc(NC(=O)C3CC3)n2)c1C | 93 | 1.02 | inactive | – | – |

| SMILES | viability [1] [%] | fold increase [2] | outcome [2] | min viability [1] [%] | max fold increase [2] |
| --- | --- | --- | --- | --- | --- |
| Cn1cc(C#N)c(=O)n(CC(=O)Nc2sccc2C(N)=O)c1=O | 104 | 1.07 | inactive | – | – |
| O=S(=O)(Nc1ccc(Cl)c(S(=O)(=O)N2CCOCC2)c1)c1ccc2ccccc2c1 | 93 | 1.11 | inactive | – | – |
| Cc1cc(C(=O)COc2cc(C(F)(F)F)cc(C(F)(F)F)c2)c(C)n1Cc1ccc2c(c1)OCO2 | 90 | 1.11 | inactive | – | – |
| CCCCOCCCNS(=O)(=O)c1ccc(S(=O)(=O)C(F)F)cc1 | 80 | 0.94 | inactive | – | – |
| Cc1ccsc1C(=O)N1CCN(S(=O)(=O)N(C)C2CCCCC2)CC1 | 83 | 0.92 | inactive | – | – |
| O=C1c2ccccc2C(O)(c2ccc(Cl)cc2)N1CCSCc1ccco1 (stereo not drawn) | 77 | 0.9 | inactive | – | – |
| Cn1cc(S(=O)(=O)NC2(c3ccc4c(c3)OCCO4)CCCC2)c(=O)n(C)c1=O | 94 | 1.05 | inactive | – | – |
| O=C(NC1CCCCCC1)C1CC=CCC1 (stereo not drawn) | 96 | 1.02 | inactive | – | – |
| O=c1c2ccccc2nnn1COc1ccccc1Cl | 116 | 0.98 | inactive | – | – |
| CCOCCSc1nnc(-c2ccccc2)n1C | 106 | 1.04 | inactive | – | – |
| Fc1ccc2sc(CNc3ccc4nnnn4n3)cc2c1 | 105 | 1.2 | inactive | – | – |
| CCN(CC)C(=O)C(C)NC(=O)c1c(C)oc(-n2cccc2)c1C#N (stereo not drawn) | 90 | 0.95 | inactive | – | – |
| Cc1noc(C)c1CN1CCCC(NS(C)(=O)=O)C1 (stereo not drawn) | 110 | 1.04 | inactive | – | – |
| CC(C)n1nnnc1SCc1ccc([N+](=O)[O-])cc1 | 91 | 0.94 | inactive | – | – |
| Clc1ccc(CN2CCN(c3ccc(Br)cn3)CC2)s1 | 105 | 1.02 | inactive | – | – |
| O=C(NCCc1ccccc1F)NC1CCSc2ccccc21 (stereo not drawn) | 95 | 1.02 | inactive | – | – |
| COc1ccccc1-c1noc(CSC23CC4CC(CC(C4)C2)C3)n1 | 70 | 0.79 | inactive | – | – |
| O=S(=O)(Nc1ccc2c(c1)OCCO2)c1cc(F)cc(F)c1 | 97 | 0.92 | inactive | – | – |
| O=C(NCCc1ccc2c(c1)OCCO2)NCc1cccnc1OC1CCCC1 | 91 | 0.85 | inactive | – | – |
| CCC1CCC2(CC1)NC(=O)N(CC(=O)NCC1CCCO1)C2=O (stereo not drawn) | 102 | 0.98 | inactive | – | – |
| Cc1[nH]c2ccccc2c1C(=O)C(C)OC(=O)C12CC3CC(C1)CC(c1ccccc1)(C3)C2 (stereo not drawn) | 85 | 0.91 | inactive | – | – |
| CC(C)c1ccc(C(NC(=O)CN2C(=O)NC(C)(c3ccc4c(c3)OCO4)C2=O)C(C)C)cc1 (stereo not drawn) | 81 | 0.84 | inactive | – | – |
| Cn1nnn(CN2CCN(c3ccccc3)CC2)c1=S | 101 | 1.1 | inactive | – | – |
| CNc1nnc(Sc2nc3cc(C)nn3c3ccccc23)s1 | 97 | 1.1 | inactive | – | – |
| CN(CC(=O)NC(=O)NCCC1=CCCCC1)Cc1ccc(Cl)s1 | 85 | 0.92 | inactive | – | – |
| C#CCOc1ccc(CNC(C)c2ccc(Br)cc2)cc1OCC (stereo not drawn) | 76 | 0.94 | inactive | – | – |
| CN(Cc1ccccc1Cl)Cn1ncn(-c2cccc(Cl)c2)c1=S | 105 | 1.04 | inactive | – | – |

From PubChem BioAssay AID1224863 (Southern Research Institute, 2016)
